The text below walks through data of publication PMC8279520 (Aging and Disease, 2021).

The target in one experiment is T1, Aβ42 (UniProt P05067 672-713).
T1 construct: amyloid-β peptide 1-42, cut product of the amyloid precursor protein; numbers count on: the Aβ peptide; also called amyloid-β 42; non-labeled Aβ42; source: bought: GeneCust (Switzerland)
Kind of experiment: cross-linking; mixtures of GAPDH, Aβ42, tTG and cystamine incubated (12 hours by the results, 18 h at 37°C by the methods), SDS gel and Western blot with anti-Aβ antibody. To be noted: both partners purified.

Another experiment addresses T2, biotinylated Aβ42 (UniProt P05067 672-713, biotin (position not given)).
T2 construct: amyloid-β peptide 1-42, cut product of the amyloid precursor protein; numbers count on: the Aβ peptide; also called biotinylated amyloid-β 42; source: bought: GeneCust (Switzerland)
Description: ELISA; GAPDH immobilised on a 96-well plate; 30 μg/mL biotinylated Aβ42 for 1.5 h in 20 mM Tris HCl pH 7.5, 20 mM NaCl, 10 mM CaCl2; with or without tTG and cystamine; avidin-peroxidase detection. To be noted: both partners purified.

B1: glyceraldehyde-3-phosphate dehydrogenase (GAPDH) isolated from rabbit muscle (enzyme)
chain: not shown
notes: glyceraldehyde-3-phosphate dehydrogenase, rabbit muscle; also called purified GAPDH; source: isolated from rabbit muscle (provided by Dr. Muronetz)
As to B1, the binding result with Aβ42 and with biotinylated Aβ42 was “binds” in each case.
